Source: ChEMBL document CHEMBL2346555, “Efficacious cyclic N-acyl O-amino phenol duocarmycin prodrugs” (J Med Chem, 2013)

What was measured:
Plasma = test: Half life in human plasma
[1] = Half life of the compound in phosphate buffer at pH 7

## O=C(Nc1ccc2[nH]c(C(=O)N3C[C@@H](CCl)c4c3cc3c5c(cccc45)C(=O)NO3)cc2c1)c1cc2ccccc2[nH]1
Plasma
  t1/2: 96 h
[1]
  t1/2: 168 h
